# Measured values taken from PMC2996484 (Journal of neurochemistry, 2010).
# Amino acid sequences for entries named in this document (tags omitted). A change or cut given only in a name is not applied to a line headed by its entry.
# UniProt P12657: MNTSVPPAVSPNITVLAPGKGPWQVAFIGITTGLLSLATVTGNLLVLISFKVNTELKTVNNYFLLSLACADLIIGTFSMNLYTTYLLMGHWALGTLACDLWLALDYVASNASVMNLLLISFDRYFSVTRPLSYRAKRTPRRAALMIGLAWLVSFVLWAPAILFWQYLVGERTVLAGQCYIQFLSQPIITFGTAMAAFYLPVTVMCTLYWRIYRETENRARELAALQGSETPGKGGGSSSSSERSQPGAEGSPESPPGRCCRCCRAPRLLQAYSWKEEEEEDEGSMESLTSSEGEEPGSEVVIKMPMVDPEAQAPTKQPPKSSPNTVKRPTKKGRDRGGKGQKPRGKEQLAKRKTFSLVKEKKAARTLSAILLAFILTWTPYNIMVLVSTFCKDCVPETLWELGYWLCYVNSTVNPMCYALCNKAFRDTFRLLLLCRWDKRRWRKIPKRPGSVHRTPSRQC
# Biological target: m1 muscarinic acetylcholine receptor (m1AchR) (Mus musculus, UniProt P12657)
# Conditions: 100 μM carbachol 30 min, cells over-expressing the m1AchR, Fig. 2
structure (smiles),measurement,value
C[N+](C)(C)CCOC(N)=O [carbachol],D1DAR phosphorylation on carbachol stimulation,significant increase in D1DAR phosphorylation
